Laboratory results taken from article PMC12720098, “Prolintane analogs as hybrid monoamine transporter ligands: Structural determinants and species differences” (The Journal of Biological Chemistry, 2025).
Structures can show the parent of a compound that is named as a salt. Where two headings read alike, the source gives them in different places.

Amino acid sequences for entries named in this document (tags omitted).
UniProt P31652, whole entry: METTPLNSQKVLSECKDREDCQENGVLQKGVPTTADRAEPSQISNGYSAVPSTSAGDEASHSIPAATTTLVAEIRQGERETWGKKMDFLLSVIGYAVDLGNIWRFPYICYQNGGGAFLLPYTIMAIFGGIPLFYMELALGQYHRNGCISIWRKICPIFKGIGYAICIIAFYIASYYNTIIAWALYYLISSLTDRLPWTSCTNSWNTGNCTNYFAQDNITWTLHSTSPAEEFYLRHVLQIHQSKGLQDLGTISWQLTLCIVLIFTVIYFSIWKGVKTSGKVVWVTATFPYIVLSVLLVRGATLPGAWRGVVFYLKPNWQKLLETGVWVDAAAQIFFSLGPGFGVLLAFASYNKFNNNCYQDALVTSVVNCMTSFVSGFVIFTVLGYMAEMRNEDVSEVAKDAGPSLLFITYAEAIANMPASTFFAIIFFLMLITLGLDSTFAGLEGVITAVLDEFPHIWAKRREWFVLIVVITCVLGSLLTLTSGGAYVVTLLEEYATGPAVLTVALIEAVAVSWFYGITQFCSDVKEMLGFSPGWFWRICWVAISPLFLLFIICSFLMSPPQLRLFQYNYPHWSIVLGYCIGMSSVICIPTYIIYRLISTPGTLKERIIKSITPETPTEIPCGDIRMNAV

Target: rSERT (Rattus norvegicus, UniProt P31652)
Type: cell-based
Design: expressed in transfected cells
Settings: for Mean diff, rSERT efflux ± Mon (Šídák's multiple comparisons test): drug alone vs drug + monensin (Mon)

Fc1ccc([C@@H]2CCNC[C@H]2COc2ccc3c(c2)OCO3)cc1 [Paroxetine, paroxetine HCl]
Mean diff, rSERT efflux ± Mon (Šídák's multiple comparisons test) (Row 1 (time fraction)): 0.1442
Mean diff, rSERT efflux ± Mon (Šídák's multiple comparisons test) (Row 2 (time fraction)): -0.02622
Mean diff, rSERT efflux ± Mon (Šídák's multiple comparisons test) (Row 3 (time fraction)): -0.1814
Mean diff, rSERT efflux ± Mon (Šídák's multiple comparisons test) (Row 4 (time fraction)): -0.04233
Mean diff, rSERT efflux ± Mon (Šídák's multiple comparisons test) (Row 5 (time fraction)): -0.6121
Mean diff, rSERT efflux ± Mon (Šídák's multiple comparisons test) (Row 6 (time fraction)): -1.044
Mean diff, rSERT efflux ± Mon (Šídák's multiple comparisons test) (Row 7 (time fraction)): -1.227
Mean diff, rSERT efflux ± Mon (Šídák's multiple comparisons test) (Row 8 (time fraction)): -1.361
Mean diff, rSERT efflux ± Mon (Šídák's multiple comparisons test) (Row 9 (time fraction)): -2.004
Mean diff, rSERT efflux ± Mon (Šídák's multiple comparisons test) (Row 10 (time fraction)): -1.579
Mean diff, rSERT efflux ± Mon (Šídák's multiple comparisons test) (Row 11 (time fraction)): -1.619
Mean diff, rSERT efflux ± Mon (Šídák's multiple comparisons test) (Row 12 (time fraction)): -1.624
[3H]5-HT releasing profile in cells expressing rSERT (superfusion, HEK293 cells, with and without monensin): almost identical pseudo-efflux releasing profile
